The values that follow come from PMC5571044 (Scientific Reports, 2017).

By UniProt entry, the sequences of proteins in these tests, tags left out. Residues count along the entry.
UniProt Q67296, 309-483 limits assumed: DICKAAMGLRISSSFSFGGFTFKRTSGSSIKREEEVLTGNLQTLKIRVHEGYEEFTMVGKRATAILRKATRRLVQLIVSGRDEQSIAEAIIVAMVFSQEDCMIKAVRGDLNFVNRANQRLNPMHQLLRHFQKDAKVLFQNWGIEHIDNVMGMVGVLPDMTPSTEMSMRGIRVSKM

In experiment [1] the target is influenza A PB2cap (Influenza A virus (A/Udorn/307/1972(H3N2)), UniProt Q67296). Description: biochemical. Format: binding, influenza A/Udorn/307/1972(H3N2).
For experiment [2], the system named is influenza virus A/H3N2/Udorn/72. Description: microbe, parasite or virus in culture. To be noted: H3N2, MDCK, 72 h, read-out: CPE EC50.

As to `O=C(O)[C@H]1C2CCC(CC2)[C@@H]1Nc1nc(-c2c[nH]c3ncc(F)cc23)ncc1F` [VX-787], binding in experiment [1] was characterised by a dissociation constant (Kd) of 56.5 nM. The concentration giving a half-maximal response (EC50) in experiment [2] is 2.6 nM.
